Results from PMC2736829.

Target: recombinant extracellular carbonic anhydrase (CA) domain of human CA IX (aa 120-397) with C-terminal 6xHis-tag (human) (UniProt Q16790)
Assay: SEC + other: SDS-PAGE; purified recombinant CA IX domain; Superdex 200 HR 10/30; SDS-PAGE under non-reducing and reducing conditions; covalent dimer

Substance “recombinant extracellular carbonic anhydrase (CA) domain of human CA IX (aa 120-397) with C-terminal 6xHis-tag (from UniProt Q16790 120-397) (domain or fragment)” has a percent covalent homodimer of 75% and a stoichiometry N of 2.
